Assay results taken from paper doi:10.1101/2023.12.19.572309 (bioRxiv, 2023).

Biological target: the molecule itself
Experiment: native gel or EMSA

B1: ATG16L1 (recombinant, within the ATG16L1-(StrepII^2x)ATG5–ATG12 complex) (natural protein)
chain: MSSGLRAADFPRWKRHISEQLRRRDRLQRQAFEEIILQYNKLLEKSDLHSVLAQKLQAEKHDVPNRHEISPGHDGTWNDNQLQEMAQLRIKHQEELTELHKKRGELAQLVIDLNNQMQRKDREMQMNEAKIAECLQTISDLETECLDLRTKLCDLERANQTLKDEYDALQITFTALEGKLRKTTEENQELVTRWMAEKAQEANRLNAENEKDSRRRQARLQKELAEAAKEPLPVEQDDDIEVIVDETSDHTEETSPVRAISRAATKRLSQPAGGLLDSITNIFGRRSVSSFPVPQDNVDTHPGSGKEVRVPATALCVFDAHDGEVNAVQFSPGSRLLATGGMDRRVKLWEVFGEKCEFKGSLSGSNAGITSIEFDSAGSYLLAASNDFASRIWTVDDYRLRHTLTGHSGKVLSAKFLLDNARIVSGSHDRTLKLWDLRSKVCIKTVFAGSSCNDIVCTEQCVMSGHFDKKIRFWDIRSESIVREMELLGKITALDLNPERTELLSCSRDDLLKVIDLRTNAIKQTFSAPGFKCGSDWTRVVFSPDGSYVAAGSAEGSLYIWSVLTGKVEKVLSKQHSSSINAVAWSPSGSHVVSVDKGCKAVLWAQY
- stoichiometry N: 2
